Ab-91 heavy chain CDR variants: yeast mating affinities

Values reported by Engelhart et al. 2022, doi:10.1038/s41597-022-01779-4 (FLAb copy).

All variants were tested on one target, the spike HR2 peptide PDVDLGDISGINAS (SARS-CoV-2).

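In library AAYL51, one, two or three CDR residues were substituted; doubles and triples were drawn at random. The assay is AlphaSeq: two haploid yeast populations carry antibody and antigen on their surface. The frequency of each diploid, read from paired DNA barcodes, reflects how well the two displayed proteins bind. Read counts were normalised to the haploid input and turned into Kd by a linear fit to BCL2-family pairs of known affinity, for each replicate. There are three technical replicates.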

Ab-91 is the parent antibody, in scFv form: VL, then a 15-residue (Gly4Ser)3 linker, then VH. The light chain is unchanged in all variants.
VL: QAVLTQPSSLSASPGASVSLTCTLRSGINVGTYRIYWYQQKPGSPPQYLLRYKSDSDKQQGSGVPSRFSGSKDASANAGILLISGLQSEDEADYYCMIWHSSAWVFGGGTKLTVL
VH: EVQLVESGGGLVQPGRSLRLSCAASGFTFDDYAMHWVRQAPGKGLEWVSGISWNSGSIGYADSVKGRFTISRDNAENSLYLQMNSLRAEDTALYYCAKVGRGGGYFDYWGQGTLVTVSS

Positions count from residue 1 of the parent VH; F29W puts W in place of F. Every variant below is changed at G103 of the VH (sequential numbering). Values are apparent Kd, the geometric mean of the replicates that gave a signal; lower means stronger binding. Where no diploid with the target was found in any replicate, the entry reads "nd": below detection, most likely a poor binder, though not proof of it. For reference, the parent read 72 nM as the reference entry and 7.5 nM as a member of this library. Background: pairings of library AAYL51 with three empty control strains gave a value in 21% of cases (median 34 µM, 5th percentile 1.8 µM). Values in that range, when seen in few replicates, are hard to tell from nonspecific mating.

- F29W G103S D107C = nd (0 of 3 replicates)
- Y32L G103A Y108V = nd (0 of 3 replicates)
- G100F G103S Y108Q = nd (0 of 3 replicates)
- D62H G103P G104S = 370 µM (3 of 3 replicates)
- N54A I58N G103Q = nd (0 of 3 replicates)
- T28D Y32L G103F = 1.3 µM (1 of 3 replicates)
- F29Q G59F G103P = 260 µM (1 of 3 replicates)
- A61G G103Q F106H = 56 µM (3 of 3 replicates)
- D31N S57A G103Q = 61 nM (3 of 3 replicates)
- I58K A61V G103T = nd (0 of 3 replicates)
- S52D N54Y G103H = nd (0 of 3 replicates)
- A33I S57M G103Q = nd (0 of 3 replicates)
- N54L G103V = nd (0 of 3 replicates)
- G103K F106Q Y108L = 110 nM (3 of 3 replicates)
- G100I G103S F106P = 30 µM (2 of 3 replicates)
- D31K Y60F G103R = 960 nM (3 of 3 replicates)
- K65F G103E Y108T = 230 µM (2 of 3 replicates)
- G56T G103W = 580 µM (1 of 3 replicates)
- V64Y G103K = 85 nM (3 of 3 replicates)
- S55E G100W G103E = 120 µM (2 of 3 replicates)
- D31A G103V Y105P = nd (0 of 3 replicates)
- A33G G56I G103M = 9.7 µM (1 of 3 replicates)
- S57P G103Y Y108I = 43 µM (1 of 3 replicates)
- S57N G103M = nd (0 of 3 replicates)
- G26S S57V G103A = 43 µM (1 of 3 replicates)
- R101Q G103M = 15 nM (3 of 3 replicates)
- D30F M34Y G103M = nd (0 of 3 replicates)
- D30Y N54P G103E = nd (0 of 3 replicates)
- D30P S52V G103W = 91 µM (1 of 3 replicates)
- M34L V99Q G103L = nd (0 of 3 replicates)
- G59D G103L Y105N = nd (0 of 3 replicates)
- G100M G103L Y108N = 210 µM (3 of 3 replicates)
- G50T G103K Y105L = nd (0 of 3 replicates)
- S52M D62Y G103F = nd (0 of 3 replicates)

For reference, 5 entries of the list once more:

| changes | Kd (apparent) | replicates with signal |
|---|---|---|
| G100F G103S Y108Q | nd | 0 of 3 |
| G100I G103S F106P | 30 µM | 2 of 3 |
| S57P G103Y Y108I | 43 µM | 1 of 3 |
| D30P S52V G103W | 91 µM | 1 of 3 |
| F29W G103S D107C | nd | 0 of 3 |